# How the values were obtained:
# Protein sequences, listed by entry. Tags and fused reporters are not part of them.
# UniProt P42866, whole entry, looked up: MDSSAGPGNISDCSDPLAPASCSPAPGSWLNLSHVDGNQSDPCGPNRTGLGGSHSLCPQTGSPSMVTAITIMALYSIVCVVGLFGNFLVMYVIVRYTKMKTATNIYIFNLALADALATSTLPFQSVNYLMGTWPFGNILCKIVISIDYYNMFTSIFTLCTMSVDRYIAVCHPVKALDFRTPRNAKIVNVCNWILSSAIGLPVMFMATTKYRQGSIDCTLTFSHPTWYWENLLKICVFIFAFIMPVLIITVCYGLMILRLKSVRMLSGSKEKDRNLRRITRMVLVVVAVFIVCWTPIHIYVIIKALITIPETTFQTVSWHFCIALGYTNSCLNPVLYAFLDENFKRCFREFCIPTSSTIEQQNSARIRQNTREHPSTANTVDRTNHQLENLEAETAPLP
# UniProt P32300, whole entry, looked up: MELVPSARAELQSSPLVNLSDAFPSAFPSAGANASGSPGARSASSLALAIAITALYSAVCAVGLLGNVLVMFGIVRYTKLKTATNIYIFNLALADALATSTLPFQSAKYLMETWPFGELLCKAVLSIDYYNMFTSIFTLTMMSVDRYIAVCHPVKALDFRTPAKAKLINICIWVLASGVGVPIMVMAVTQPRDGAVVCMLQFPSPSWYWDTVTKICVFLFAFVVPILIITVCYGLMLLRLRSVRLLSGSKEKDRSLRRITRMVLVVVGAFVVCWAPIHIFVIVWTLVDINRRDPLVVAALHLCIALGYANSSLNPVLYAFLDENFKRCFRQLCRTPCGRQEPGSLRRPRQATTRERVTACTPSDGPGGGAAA
# Mu-type opioid receptor = Mu-type opioid receptor (Mus musculus, UniProt P42866); assay: Displacement of [3H]DAMGO from mu opioid receptor in mouse whole brain without cerebellum
# [1] = molecular target: Delta-type opioid receptor (Mus musculus, UniProt P32300); assay: Displacement of [3H]DPDPE from delta opioid receptor in mouse whole brain without cerebellum
SMILES,Ki (Mu-type opioid receptor),Ki [1]
CN(C(=O)Cc1ccc(Cl)c(Cl)c1)[C@@H]1CCCC[C@H]1N1CCCC1,> 1000 nM,> 1000 nM
CN(C(=O)Cc1ccccc1)[C@H]1CC[C@@]2(CCCO2)C[C@@H]1N1CCCC1,> 1000 nM,> 1000 nM

# Source: BindingDB's records for 25147605
